Literature values in patent US6846817B2 (Regents of the University of Minnesota, priority 1999, dated 2005).

Amino acid sequences for entries named in this document (tags omitted). Residues count along the entry.
UniProt P09483, 31-630 limits assumed: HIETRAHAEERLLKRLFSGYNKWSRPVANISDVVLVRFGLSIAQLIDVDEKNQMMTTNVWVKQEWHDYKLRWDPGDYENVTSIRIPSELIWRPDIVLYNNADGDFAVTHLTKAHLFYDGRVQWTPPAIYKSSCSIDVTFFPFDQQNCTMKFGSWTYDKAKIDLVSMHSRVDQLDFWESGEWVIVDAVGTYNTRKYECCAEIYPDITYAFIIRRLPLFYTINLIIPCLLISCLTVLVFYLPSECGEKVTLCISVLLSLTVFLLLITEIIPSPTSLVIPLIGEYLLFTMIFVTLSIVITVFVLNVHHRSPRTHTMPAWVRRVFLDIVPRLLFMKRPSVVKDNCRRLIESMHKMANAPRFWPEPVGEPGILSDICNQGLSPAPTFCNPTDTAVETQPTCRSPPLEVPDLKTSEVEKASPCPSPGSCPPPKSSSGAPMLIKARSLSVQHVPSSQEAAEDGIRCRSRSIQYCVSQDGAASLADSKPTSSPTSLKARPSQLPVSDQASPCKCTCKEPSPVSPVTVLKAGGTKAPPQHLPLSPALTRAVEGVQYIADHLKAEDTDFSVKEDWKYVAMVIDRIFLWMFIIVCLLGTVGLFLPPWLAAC
UniProt P12390, 25-500 limits assumed: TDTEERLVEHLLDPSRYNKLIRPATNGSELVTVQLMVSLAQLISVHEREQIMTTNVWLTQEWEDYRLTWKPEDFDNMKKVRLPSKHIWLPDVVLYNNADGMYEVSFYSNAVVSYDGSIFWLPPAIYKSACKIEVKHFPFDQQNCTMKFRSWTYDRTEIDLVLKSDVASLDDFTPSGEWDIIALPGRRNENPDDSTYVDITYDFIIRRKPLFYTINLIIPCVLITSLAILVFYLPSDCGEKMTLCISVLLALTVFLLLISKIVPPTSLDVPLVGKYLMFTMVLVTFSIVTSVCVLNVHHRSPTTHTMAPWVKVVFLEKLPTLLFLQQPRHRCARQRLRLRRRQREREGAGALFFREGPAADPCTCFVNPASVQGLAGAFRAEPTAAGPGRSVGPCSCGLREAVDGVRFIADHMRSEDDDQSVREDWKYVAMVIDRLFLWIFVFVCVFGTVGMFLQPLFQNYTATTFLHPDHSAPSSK
UniProt Q05941, 23-502 limits assumed: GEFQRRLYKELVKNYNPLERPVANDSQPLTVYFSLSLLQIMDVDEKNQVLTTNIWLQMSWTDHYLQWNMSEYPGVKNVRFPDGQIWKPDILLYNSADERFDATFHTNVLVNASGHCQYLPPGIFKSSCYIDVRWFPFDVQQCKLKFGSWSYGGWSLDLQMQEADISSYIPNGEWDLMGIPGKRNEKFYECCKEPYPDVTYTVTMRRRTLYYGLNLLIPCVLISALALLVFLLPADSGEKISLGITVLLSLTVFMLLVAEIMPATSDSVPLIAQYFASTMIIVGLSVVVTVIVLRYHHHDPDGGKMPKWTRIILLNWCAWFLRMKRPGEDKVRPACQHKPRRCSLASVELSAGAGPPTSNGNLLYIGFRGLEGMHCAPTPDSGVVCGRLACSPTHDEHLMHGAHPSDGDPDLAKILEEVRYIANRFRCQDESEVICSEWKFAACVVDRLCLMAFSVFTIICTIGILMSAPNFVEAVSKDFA

How the values were obtained:
α4β2 nicotine receptor = α4β2 nicotine receptor (Rattus norvegicus, UniProt P09483+P12390); conditions: read-out: Ki-[3H]Cytisine; rat brain; from Donnelly-Roberts et al., 1998; cited from earlier work
α7 nicotine receptor = α7 nicotine receptor (Rattus norvegicus, UniProt Q05941); conditions: cited from earlier work
[1] = molecular target: α4β2 nicotinic acetylcholine receptor subtype (Rattus norvegicus, UniProt P09483+P12390); conditions: read-out: Ki, inhibition of [3H]-nicotine binding; rat brain; cited from earlier work

SMILES | Ki (α4β2 nicotine receptor) | Ki (α7 nicotine receptor) | Ki [1]
Clc1ccc(OC[C@@H]2CCN2)cn1 | 0.039 nM | 4620 nM | 
Clc1ccc(OC[C@H]2CCN2)cn1 | 0.037 nM | 13800 nM | 0.037 nM
